The values below come from patent publication US20090048260A1, “Use of pyrrolopyrazine derivatives for the production of medicaments for the treatment of mucoviscidosis and diseases related to protein addressing errors in cells” (priority 2004, published 2009).

Amino acid sequences for entries named in this document (tags omitted).
UniProt P13569, whole entry: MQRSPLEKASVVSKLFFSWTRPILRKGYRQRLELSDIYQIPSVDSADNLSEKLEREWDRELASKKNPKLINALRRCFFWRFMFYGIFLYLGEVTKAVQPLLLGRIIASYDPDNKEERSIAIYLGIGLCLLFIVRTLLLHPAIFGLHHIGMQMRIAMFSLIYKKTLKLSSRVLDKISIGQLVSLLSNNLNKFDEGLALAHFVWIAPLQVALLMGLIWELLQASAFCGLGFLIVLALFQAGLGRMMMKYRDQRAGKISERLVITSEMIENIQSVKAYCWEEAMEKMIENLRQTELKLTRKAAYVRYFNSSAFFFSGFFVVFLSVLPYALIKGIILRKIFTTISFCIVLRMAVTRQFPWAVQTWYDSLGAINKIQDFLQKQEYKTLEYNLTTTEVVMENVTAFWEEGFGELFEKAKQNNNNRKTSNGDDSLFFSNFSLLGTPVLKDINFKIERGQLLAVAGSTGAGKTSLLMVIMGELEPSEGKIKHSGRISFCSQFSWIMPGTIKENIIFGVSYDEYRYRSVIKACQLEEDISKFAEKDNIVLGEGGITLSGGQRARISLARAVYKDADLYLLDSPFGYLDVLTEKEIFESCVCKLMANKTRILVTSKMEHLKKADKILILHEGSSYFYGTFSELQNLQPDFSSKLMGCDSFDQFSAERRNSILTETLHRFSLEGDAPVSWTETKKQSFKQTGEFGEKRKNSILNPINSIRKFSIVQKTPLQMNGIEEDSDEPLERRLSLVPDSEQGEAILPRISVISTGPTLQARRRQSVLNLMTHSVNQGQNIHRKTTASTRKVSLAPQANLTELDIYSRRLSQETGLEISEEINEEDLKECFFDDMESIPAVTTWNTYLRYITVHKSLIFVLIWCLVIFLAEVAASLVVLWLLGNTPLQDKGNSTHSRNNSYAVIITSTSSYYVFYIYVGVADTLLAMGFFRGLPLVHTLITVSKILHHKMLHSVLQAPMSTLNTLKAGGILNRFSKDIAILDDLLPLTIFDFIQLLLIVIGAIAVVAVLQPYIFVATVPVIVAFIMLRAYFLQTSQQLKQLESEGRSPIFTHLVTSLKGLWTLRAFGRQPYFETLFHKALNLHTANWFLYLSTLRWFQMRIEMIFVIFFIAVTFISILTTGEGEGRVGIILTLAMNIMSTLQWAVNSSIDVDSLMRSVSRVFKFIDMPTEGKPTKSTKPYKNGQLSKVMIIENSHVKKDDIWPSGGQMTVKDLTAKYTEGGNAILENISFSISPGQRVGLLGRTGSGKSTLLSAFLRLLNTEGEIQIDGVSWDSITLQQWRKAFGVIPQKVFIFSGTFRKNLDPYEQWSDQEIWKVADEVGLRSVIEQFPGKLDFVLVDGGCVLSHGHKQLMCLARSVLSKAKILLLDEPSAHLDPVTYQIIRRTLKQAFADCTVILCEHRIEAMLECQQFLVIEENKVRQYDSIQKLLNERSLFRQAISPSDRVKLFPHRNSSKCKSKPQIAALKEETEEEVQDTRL

A word on the EC50: it is the concentration giving half of the maximal effect. Read a high EC50 as a less potent agent.

The experiment deals with T1, wild-type CFTR (Homo sapiens, UniProt P13569).
T1 construct: endogenous in cells; host or cells: Calu-3
The experiment in a line: iodide efflux, activation of the CFTR chloride channel in Calu-3 cells. The format is cell-based. Conditions: human pulmonary epithelial cell line Calu-3. How it is done: Calu-3 cells: Calu-3 cells are human epithelial cells of pulmonary origin which express the wild-type CFTR gene.
the measurements of chloride ion transport in the cells was carried out with the aid of the radioactive iodide efflux technique (Becq et al., 1999; Dormer et al., 2001). The tracer (^125I) is incorporated into the intracellular medium. Next, the quantity of radiotracer which leaves the cell is counted after the addition of various pharmacological agents. Iodide is used as a tracer for the transport of chloride ions. ^125I further has the advantage of having a short life compared with that of other markers such as ^35Cl (respective ½ life: […] and 300000 years).
The cells are cultured on 24-well plates in a suitable medium. 2 rinses with efflux medium (NaCl: 136.6 mM, KCl: 5.4 mM, KH2PO4: 0.3 mM, NaH2PO4: 0.3 mM, NaHCO3: 4.2 mM, CaCl2: 1.3 mM, MgCl2: 0.5 mm, MgSO4: 0.4 mM, HEPES: 10 mM, D-glucose: 5.6 mM) are carried out in order to remove the dead cells which release the radioactivity anarchically. […] A robot (MultiPROBE, Packard) carries out the following steps: the loading medium is rinsed with efflux medium in order to remove the extracellular radioactivity. […] At the end of the experiment, the cells are lyzed by adding 500 μl of NaOH (0.1 N)/0.1% SDS (30 min), thus, the radioactivity which remained inside the cell may be determined. […]

The structures appear in SMILES notation.

In turn, `CCCCc1c(-c2ccc(O)cc2)[nH]c2nccnc12` [aloisine A] gave an EC50 of 140 nM.
